The source of these data is BindingDB's records for doi:10.1016/s0960-894x(03)00634-6 (Kyowa Hakko Kogyo, 2003).

Amino acid sequences for entries named in this document (tags omitted).
UniProt P09619, whole entry: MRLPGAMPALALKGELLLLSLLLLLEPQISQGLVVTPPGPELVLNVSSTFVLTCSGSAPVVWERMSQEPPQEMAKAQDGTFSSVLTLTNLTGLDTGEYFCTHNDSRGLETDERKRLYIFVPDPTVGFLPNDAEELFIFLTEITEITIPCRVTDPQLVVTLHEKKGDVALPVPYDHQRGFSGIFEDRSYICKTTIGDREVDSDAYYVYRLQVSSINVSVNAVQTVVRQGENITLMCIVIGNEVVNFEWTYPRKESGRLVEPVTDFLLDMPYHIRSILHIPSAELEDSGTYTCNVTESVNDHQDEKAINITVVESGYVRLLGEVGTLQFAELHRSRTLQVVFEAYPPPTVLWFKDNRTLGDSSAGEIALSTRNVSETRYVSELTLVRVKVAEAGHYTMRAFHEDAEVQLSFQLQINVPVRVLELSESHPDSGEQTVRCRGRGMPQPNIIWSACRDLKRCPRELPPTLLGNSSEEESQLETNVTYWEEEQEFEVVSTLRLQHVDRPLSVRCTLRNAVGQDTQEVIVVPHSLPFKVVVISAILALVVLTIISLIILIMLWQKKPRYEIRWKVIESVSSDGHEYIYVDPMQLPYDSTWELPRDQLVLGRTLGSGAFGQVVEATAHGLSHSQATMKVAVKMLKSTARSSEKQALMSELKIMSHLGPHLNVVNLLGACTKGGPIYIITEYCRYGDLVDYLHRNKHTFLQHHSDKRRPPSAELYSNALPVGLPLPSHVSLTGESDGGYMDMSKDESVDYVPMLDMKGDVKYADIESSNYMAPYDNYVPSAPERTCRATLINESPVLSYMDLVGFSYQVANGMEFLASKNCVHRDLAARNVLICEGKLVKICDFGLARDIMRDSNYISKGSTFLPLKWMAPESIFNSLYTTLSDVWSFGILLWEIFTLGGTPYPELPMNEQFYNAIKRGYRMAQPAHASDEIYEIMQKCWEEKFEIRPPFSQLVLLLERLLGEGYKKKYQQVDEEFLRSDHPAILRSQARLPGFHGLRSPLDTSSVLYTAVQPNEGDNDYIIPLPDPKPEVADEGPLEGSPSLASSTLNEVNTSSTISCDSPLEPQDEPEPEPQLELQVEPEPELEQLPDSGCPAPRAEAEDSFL

For the test, the target named is Platelet-derived growth factor receptor beta (Homo sapiens, UniProt P09619). The test is described as follows: ChEBML_158518.

Structures are written as SMILES.

Take `COc1cc2nc(Cl)nc(N3CCN(C(=O)Nc4ccc(Oc5ccccc5)cc4)CC3)c2cc1OC` [4-(2-Chloro-6,7-dimethoxy-quinazolin-4-yl)-piperazine-1-carboxylic acid (4-phenoxy-phenyl)-amide]: the half-inhibitory concentration (IC50) (as a rule, the midpoint of a concentration-inhibition curve) is > 30 µM.

Regarding `COc1cc2c(N3CCN(C(=O)Nc4ccc(Oc5ccccc5)cc4)CC3)ncnc2c(OC)c1OC` [4-(6,7,8-Trimethoxy-quinazolin-4-yl)-piperazine-1-carboxylic acid (4-phenoxy-phenyl)-amide], the 50% inhibitory concentration (IC50) was > 30 µM.

For the compound `COc1cc2nc(C)nc(N3CCN(C(=O)Nc4ccc(Oc5ccccc5)cc4)CC3)c2cc1OC` [4-(6,7-Dimethoxy-2-methyl-quinazolin-4-yl)-piperazine-1-carboxylic acid (4-phenoxy-phenyl)-amide], the IC50 was > 30 µM.

In the case of `COc1cc2nc(N3CCOCC3)nc(N3CCN(C(=O)Nc4ccc(Oc5ccccc5)cc4)CC3)c2cc1OC` [4-(6,7-Dimethoxy-2-morpholin-4-yl-quinazolin-4-yl)-piperazine-1-carboxylic acid (4-phenoxy-phenyl)-amide], the half-maximal inhibitory concentration (IC50) was > 30 µM.

As for `COc1ccc2c(N3CCN(C(=O)Nc4ccc(Oc5ccccc5)cc4)CC3)ncnc2c1OC` [4-(7,8-Dimethoxy-quinazolin-4-yl)-piperazine-1-carboxylic acid (4-phenoxy-phenyl)-amide], the 50% inhibitory concentration (IC50) is > 30 µM.

As for `CCNc1cc2ncnc(N3CCN(C(=S)NCc4ccccc4)CC3)c2cc1[N+](=O)[O-]` [4-(7-Ethylamino-6-nitro-quinazolin-4-yl)-piperazine-1-carbothioic acid benzylamide], the IC50 was > 30 µM.

Regarding `S=C(NCc1ccccc1)N1CCN(c2ncnc3ccccc23)CC1` [4-Quinazolin-4-yl-piperazine-1-carbothioic acid benzylamide], the half-maximal inhibitory concentration (IC50) is > 30 µM.
